## CycPeptMPDB entries from one study

PAMPA is the parallel artificial membrane permeability assay, which has no cells and reads passive diffusion.
Permeability is in 10^-6 cm/s, converted from the database's log10 values; higher is more permeable.

SMILES,PAMPA (10^-6 cm/s)
CCCCCN1CC(=O)N(C)[C@@H](CC(C)C)C(=O)N[C@@H](CCCC)C(=O)N2CCC[C@@H]2C(=O)N(Cc2cc(CC(C)C)on2)CC(=O)N[C@@H](CC(C)C)C1=O,0.26
CCCC[C@@H]1NC(=O)[C@H](CC(C)C)N(C)C(=O)CN(CCCc2cnn(C)c2)C(=O)[C@H](C)NC(=O)CN(CCCOC(C)C)C(=O)[C@H]2CCCN2C1=O,0.21
CCCC[C@@H]1NC(=O)[C@H](CC(C)C)N(C)C(=O)CN(CCCc2cnn(C)c2)C(=O)[C@H](CC(C)C)NC(=O)CN(CC(C)C)C(=O)[C@H]2CCCN2C1=O,5
CCCC[C@@H]1NC(=O)[C@H](CC(C)C)N(C)C(=O)CN(CCCN2CCCC2=O)C(=O)[C@H](CC(C)C)NC(=O)CN(CCC)C(=O)[C@H]2CCCN2C1=O,0.29
CCCC[C@@H]1NC(=O)[C@H](CC(C)C)N(C)C(=O)CN(CCOc2ccccc2)C(=O)[C@H](C)NC(=O)CN(Cc2ccccc2Cn2cccn2)C(=O)[C@H]2CCCN2C1=O,4.2
CCCC[C@@H]1NC(=O)[C@H](CC(C)C)N(C)C(=O)CN(CCOc2ccccc2)C(=O)[C@H](CC(C)C)NC(=O)CN(CCCOC(C)C)C(=O)[C@H]2CCCN2C1=O,3.2
CCCC[C@@H]1NC(=O)[C@H](CC(C)C)N(C)C(=O)CN(CCCN2CCCC2=O)C(=O)[C@H](C)NC(=O)CN(CCN2CCOCC2)C(=O)[C@H]2CCCN2C1=O,0.001
CCCC[C@@H]1NC(=O)[C@H](CC(C)C)N(C)C(=O)CN(CCCc2ccccc2)C(=O)[C@H](C)NC(=O)CN(CCCCc2ccccc2)C(=O)[C@H]2CCCN2C1=O,0.76
CCCC[C@@H]1NC(=O)[C@H](CC(C)C)N(C)C(=O)CN(CCOc2ccccc2)C(=O)[C@H](Cc2ccc3ccccc3c2)NC(=O)CN(CCCCc2ccccc2)C(=O)[C@H]2CCCN2C1=O,0.011
CCCC[C@@H]1NC(=O)[C@H](CC(C)C)N(C)C(=O)CN(CC2CCOCC2)C(=O)[C@H](Cc2ccc3ccccc3c2)NC(=O)CN(Cc2ccccc2Cn2cccn2)C(=O)[C@H]2CCCN2C1=O,0.51
CCCC[C@@H]1NC(=O)[C@H](CC(C)C)N(C)C(=O)CN(CCOc2ccccc2)C(=O)[C@H](C)NC(=O)CN(CCCOC(C)C)C(=O)[C@H]2CCCN2C1=O,8.7
CCCC[C@@H]1NC(=O)[C@H](CC(C)C)N(C)C(=O)CN(CCOc2ccccc2)C(=O)[C@H](Cc2ccc3ccccc3c2)NC(=O)CN(CCCOC(C)C)C(=O)[C@H]2CCCN2C1=O,0.16
CCCC[C@@H]1NC(=O)[C@H](CC(C)C)N(C)C(=O)CN(Cc2ccccc2)C(=O)[C@H](C)NC(=O)CN(Cc2ccc3c(c2)OCO3)C(=O)[C@H]2CCCN2C1=O,7.8
CCCCCN1CC(=O)N(C)[C@@H](CC(C)C)C(=O)N[C@@H](CCCC)C(=O)N2CCC[C@@H]2C(=O)N(CCC)CC(=O)N[C@@H](C)C1=O,8.9
CCCC[C@@H]1NC(=O)[C@H](CC(C)C)N(C)C(=O)CN(CCOc2ccccc2)C(=O)[C@H](C)NC(=O)CN(Cc2cc(CC(C)C)on2)C(=O)[C@H]2CCCN2C1=O,2.6
CCCCCN1CC(=O)N(C)[C@@H](CC(C)C)C(=O)N[C@@H](CCCC)C(=O)N2CCC[C@@H]2C(=O)N(CCCCc2ccccc2)CC(=O)N[C@@H](Cc2ccc3ccccc3c2)C1=O,0.0078
CCCC[C@@H]1NC(=O)[C@H](CC(C)C)N(C)C(=O)CN(CCCc2cnn(C)c2)C(=O)[C@H](CC(C)C)NC(=O)CN(Cc2ccccc2Cn2cccn2)C(=O)[C@H]2CCCN2C1=O,1.8
CCCC[C@@H]1NC(=O)[C@H](CC(C)C)N(C)C(=O)CN(CCOc2ccccc2)C(=O)[C@H](Cc2ccc3ccccc3c2)NC(=O)CN(Cc2ccccc2Cn2cccn2)C(=O)[C@H]2CCCN2C1=O,0.021
CCCC[C@@H]1NC(=O)[C@H](CC(C)C)N(C)C(=O)CN(CC2CCCCC2)C(=O)[C@H](CC(C)C)NC(=O)CN(CC)C(=O)[C@H]2CCCN2C1=O,6.8
CCCC[C@@H]1NC(=O)[C@H](CC(C)C)N(C)C(=O)CN(CC2CCCCC2)C(=O)[C@H](C)NC(=O)CN(CCN2CCOCC2)C(=O)[C@H]2CCCN2C1=O,1.2
CCCC[C@@H]1NC(=O)[C@H](CC(C)C)N(C)C(=O)CN(CCOc2ccccc2)C(=O)[C@H](Cc2ccc3ccccc3c2)NC(=O)CN(CC)C(=O)[C@H]2CCCN2C1=O,0.48
CCCC[C@@H]1NC(=O)[C@H](CC(C)C)N(C)C(=O)CN(Cc2ccccc2)C(=O)[C@H](CC(C)C)NC(=O)CN(Cc2ccc(Cl)cc2)C(=O)[C@H]2CCCN2C1=O,0.23
CCCC[C@@H]1NC(=O)[C@H](CC(C)C)N(C)C(=O)CN(CC2CCOCC2)C(=O)[C@H](C)NC(=O)CN(CC(C)C)C(=O)[C@H]2CCCN2C1=O,0.55
CCCC[C@@H]1NC(=O)[C@H](CC(C)C)N(C)C(=O)CN(Cc2ccccc2)C(=O)[C@H](C)NC(=O)CN(CCN2CCOCC2)C(=O)[C@H]2CCCN2C1=O,0.32

Extract of 2 entries:

SMILES,PAMPA (10^-6 cm/s)
CCCC[C@@H]1NC(=O)[C@H](CC(C)C)N(C)C(=O)CN(CC2CCCCC2)C(=O)[C@H](CC(C)C)NC(=O)CN(CC)C(=O)[C@H]2CCCN2C1=O,6.8
CCCC[C@@H]1NC(=O)[C@H](CC(C)C)N(C)C(=O)CN(CCCN2CCCC2=O)C(=O)[C@H](CC(C)C)NC(=O)CN(CCC)C(=O)[C@H]2CCCN2C1=O,0.29

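The data file gives no further conditions (lipid, pH, time, direction or concentration), and values from different papers need not be comparable. The list need not hold all peptides of the study. Peptides that the database sets to -10, its floor, are left out.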

Values of Furukawa et al. 2016, doi:10.1021/acs.jmedchem.6b01246, as listed in CycPeptMPDB.